According to patent US6063766A, “Transport protein which effects the transport of cationic xenobiotics and/or pharmaceuticals, DNA sequences encoding it and their use” (priority 1994, dated 2000):

Key:
[1] = molecular target: MPP uptake in hepatocytes; conditions: cultured hepatocytes; cited from earlier work
OCT1 transport protein [2] = molecular target: T1, OCT1 transport protein (Rattus norvegicus, UniProt Q63089); conditions: xenopus oocytes expressing oct1
T1 sequence (Q63089 1-556): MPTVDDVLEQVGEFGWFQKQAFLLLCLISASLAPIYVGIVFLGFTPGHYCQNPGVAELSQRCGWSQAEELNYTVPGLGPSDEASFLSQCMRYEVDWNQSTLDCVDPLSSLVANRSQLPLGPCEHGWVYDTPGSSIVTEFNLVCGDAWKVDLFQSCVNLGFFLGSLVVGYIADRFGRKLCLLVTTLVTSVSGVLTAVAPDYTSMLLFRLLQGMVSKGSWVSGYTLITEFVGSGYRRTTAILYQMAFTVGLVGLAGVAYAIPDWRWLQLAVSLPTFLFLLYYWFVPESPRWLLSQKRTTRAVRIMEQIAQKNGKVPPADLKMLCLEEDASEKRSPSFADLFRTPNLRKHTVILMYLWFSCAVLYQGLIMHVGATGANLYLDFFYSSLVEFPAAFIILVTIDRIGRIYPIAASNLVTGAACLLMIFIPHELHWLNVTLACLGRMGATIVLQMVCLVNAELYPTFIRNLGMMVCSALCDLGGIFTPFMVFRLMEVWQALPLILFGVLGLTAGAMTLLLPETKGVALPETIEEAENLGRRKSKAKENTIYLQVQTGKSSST

OCT1 transport protein [3] = molecular target: T1, OCT1 transport protein; conditions: Ki for inhibition of OCT1-elicited ^14 C-TEA uptake (mM, text)

Compound	Ki [1]	Ki (OCT1 transport protein [2])	Ki (OCT1 transport protein [3])
C=C[C@H]1C[N@@]2CC[C@H]1C[C@H]2[C@H](O)c1ccnc2ccc(OC)cc12 [Quinine]	0.8 µM		
C[N+](C)(C)C [Tetramethylammonium]		1000 µM	~1 mM

Where two headings read alike, the source gives them in different places.
